Sequences of proteins named here, by UniProt entry; tags and fusion partners are left off. Residues count along the entry.
UniProt O60674, 849-1124 Y1007F/Y1008F: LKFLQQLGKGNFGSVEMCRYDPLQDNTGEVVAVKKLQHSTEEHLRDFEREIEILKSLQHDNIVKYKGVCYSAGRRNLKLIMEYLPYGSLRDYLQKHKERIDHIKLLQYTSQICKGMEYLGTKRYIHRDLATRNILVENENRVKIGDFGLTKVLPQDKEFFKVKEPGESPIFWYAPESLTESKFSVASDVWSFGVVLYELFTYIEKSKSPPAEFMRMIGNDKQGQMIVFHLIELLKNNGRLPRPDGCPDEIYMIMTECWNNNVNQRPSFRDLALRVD

In patent US11691963B2, “6-heteroaryloxy benzimidazoles and azabenzimidazoles as JAK2 inhibitors” (Ajax Therapeutics, Inc., priority 2020, dated 2023):

These molecules were tested against JAK2 (JH1domain-catalytic, Y1007F,Y1008F) kinase (Homo sapiens (Human), UniProt O60674, Y1007F/Y1008F) (assay: biochemical).
In the case of `CC(=O)Nc1cc(Oc2cnc3nc(Nc4cc(C(C)(C)C)n([C@@H]5CCC[C@@H]5O)n4)n(C)c3c2)ccn1` (single isomer, unassigned) [Example I-162-b], the pKd was 7.30 to 8.00.
For `CN1CCC(n2nc(Nc3nc4ncc(Oc5ccnc(NC(=O)C6CC6)c5)cc4n3C)cc2C(C)(C)C)C1` (single isomer, unassigned) [Example I-169-b], the pKd was 7.30 to 8.00.
Molecule `COc1c(Oc2ccnc(NC(C)=O)c2)cnc2nc(Nc3cc(C(C)(C)C)n([C@H]4CN(C)CC4(F)F)n3)n(C)c12` (single isomer, unassigned) [Example I-172-b] has a pKd of 7.30 to 8.00.
`CC(=O)Nc1cc(Oc2cnc3nc(Nc4cc(C(C)(C)C)n([C@H]5CCOC5(C)C)n4)n(C)c3c2)ccn1` (single isomer, unassigned) [Example I-175-b] showed a pKd of 6.00 to 7.30.
`COc1c(Oc2ccnc(NC(=O)C3CC3)c2)cnc2nc(Nc3cc(C(C)(C)C)n(CC(C)O)n3)n(C)c12` (single isomer, unassigned) [Example I-176-a] was tested, and the pKd was greater than 8.00.
`COc1c(Oc2ccnc(NC(C)=O)c2)cnc2nc(Nc3nc([C@H]4CCOC4)c(C(C)(C)C)s3)n(C)c12` (single isomer, unassigned) [Example I-195-a] was tested, and the pKd was greater than 8.00.
Work on `COc1c(Oc2ccnc(NC(C)=O)c2)cnc2nc(Nc3nc([C@@H]4CCOC4)c(C(C)(C)C)s3)n(C)c12` (single isomer, unassigned) [Example I-195-b] yielded a pKd greater than 8.00.
Work on `CC(=O)Nc1cc(Oc2ccc3nc(Nc4ccc(Cl)c(C(F)(F)F)c4)n(C)c3c2)ccn1` [Example I-4, N-(4-((2-((4-chloro-3-(trifluoromethyl)phenyl)amino)-1-methyl-1H-benzo[d]imidazol-6-yl)oxy)pyridin-2-yl)acetamide] yielded a pKd of 6.00 to 7.30.
With `CC(=O)Nc1cc(Oc2ccc3nc(Nc4ccc(Cl)c(C(F)(F)F)c4)n(C)c3c2C)ccn1` [Example I-5, N-(4-((2-((4-chloro-3-(trifluoromethyl)phenyl)amino)-1,7-dimethyl-1H-benzo[d]imidazol-6-yl)oxy)pyridin-2-yl)acetamide] the pKd was 7.30 to 8.00.
`COC1CN(c2cc(Nc3nc4ccc(Oc5ccnc(NC(C)=O)c5)cc4n3C)cc(C(F)(F)F)c2)C1` [Example I-7, N-(4-((2-((3-(3-methoxyazetidin-1-yl)-5-(trifluoromethyl)phenyl)amino)-1-methyl-1H-benzo[d]imidazol-6-yl)oxy)pyridin-2-yl)acetamide] showed a pKd of 6.00 to 7.30.
`CC(=O)Nc1cc(Oc2ccc3nc(Nc4ccc(C(C)(C)C#N)cc4)n(C)c3c2)ccn1` [Example I-8, N-(4-((2-((4-(2-cyanopropan-2-yl)phenyl)amino)-1-methyl-1H-benzo[d]imidazol-6-yl)oxy)pyridin-2-yl)acetamide] gave a pKd of 6.00 to 7.30.
In the case of `CC(=O)Nc1cc(Oc2ccc3nc(Nc4ccc(Cc5cn[nH]c5)c(C(F)(F)F)c4)n(C)c3c2)ccn1` [Example I-10, N-(4-((2-((4-((1H-pyrazol-4-yl)methyl)-3-(trifluoromethyl)phenyl)amino)-1-methyl-1H-benzo[d]imidazol-6-yl)oxy)pyridin-2-yl)acetamide], the pKd was 6.00 to 7.30.
`COCc1c(OC)cc(Nc2nc3ccc(Oc4ccnc(NC(C)=O)c4)cc3n2C)cc1C(F)(F)F` [Example I-11, N-(4-((2-((3-methoxy-4-(methoxymethyl)-5-(trifluoromethyl)phenyl)amino)-1-methyl-1H-benzo[d]imidazol-6-yl)oxy)pyridin-2-yl)acetamide] showed a pKd of 7.30 to 8.00.
Work on `CCN1CCN(Cc2ccc(Nc3nc4ccc(Oc5ccnc(C(=O)NC)c5)cc4n3C)cc2C(F)(F)F)CC1` [Example I-15, 4-((2-((4-((4-ethylpiperazin-1-yl)methyl)-3-(trifluoromethyl)phenyl)amino)-1-methyl-1H-benzo[d]imidazol-6-yl)oxy)-N-methylpicolinamide] yielded a pKd of 7.30 to 8.00.
Molecule `CNC(=O)c1cc(Oc2ccc3nc(Nc4cc(C(C)(C)C)on4)n(C)c3c2)ccn1` [Example I-16, 4-((2-((5-(tert-butyl)isoxazol-3-yl)amino)-1-methyl-1H-benzo[d]imidazol-6-yl)oxy)-N-methylpicolinamide] has a pKd of 6.00 to 7.30.
`CC(=O)Nc1cc(Oc2ccc3nc(Nc4cc(C(C)(C)C)nn4C)n(C)c3c2)ccn1` [Example I-17, N-(4-((2-((3-(tert-butyl)-1-methyl-1H-pyrazol-5-yl)amino)-1-methyl-1H-benzo[d]imidazol-6-yl)oxy)pyridin-2-yl)acetamide] gave a pKd of 6.00 to 7.30.
Work on `CC(=O)Nc1cc(Oc2ccc3nc(Nc4cc(C(C)(C)C)nn4[C@H]4CCOC4)n(C)c3c2)ccn1` [Example I-19, (S)—N-(4-((2-((3-(tert-butyl)-1-(tetrahydrofuran-3-yl)-1H-pyrazol-5-yl)amino)-1-methyl-1H-benzo[d]imidazol-6-yl)oxy)pyridin-2-yl)acetamide] yielded a pKd of 6.00 to 7.30.
`CC(=O)Nc1cc(Oc2ccc3nc(Nc4cc(C(C)(C)C)n([C@H]5CCOC5)n4)n(C)c3n2)ccn1` [Example I-22, (S)—N-(4-((2-((5-(tert-butyl)-1-(tetrahydrofuran-3-yl)-1H-pyrazol-3-yl)amino)-3-methyl-3H-imidazo[4,5-b]pyridin-5-yl)oxy)pyridin-2-yl)acetamide] gave a pKd greater than 8.00.
For `CC(=O)Nc1cc(Oc2ccc3nc(Nc4cc(C(C)(C)C)nn4[C@@H]4CCOC4)n(C)c3c2)ccn1` [Example I-23, (R)—N-(4-((2-((3-(tert-butyl)-1-(tetrahydrofuran-3-yl)-1H-pyrazol-5-yl)amino)-1-methyl-1H-benzo[d]imidazol-6-yl)oxy)pyridin-2-yl)acetamide], the pKd was 5.30 to 6.00.
`CC(=O)Nc1cc(Oc2ccc3nc(Nc4cc(C(C)(C)C)n([C@H]5C[C@@H](O)C5)n4)n(C)c3c2)ccn1` [Example I-30, N-(4-((2-((5-(tert-butyl)-1-((1s,3s)-3-hydroxycyclobutyl)-1H-pyrazol-3-yl)amino)-1-methyl-1H-benzo[d]imidazol-6-yl)oxy)pyridin-2-yl)acetamide] showed a pKd greater than 8.00.
For `CC(=O)Nc1cc(Oc2ccc3nc(Nc4cc(C(F)(F)F)n(CC5CCOCC5)n4)n(C)c3c2)ccn1` [Example I-33, N-(4-((1-methyl-2-((1-((tetrahydro-2H-pyran-4-yl)methyl)-5-(trifluoromethyl)-1H-pyrazol-3-yl)amino)-1H-benzo[d]imidazol-6-yl)oxy)pyridin-2-yl)acetamide], the pKd was 6.00 to 7.30.
For `CC(=O)Nc1cc(Oc2ccc3nc(Nc4cc(C(F)(F)F)n(C[C@H]5CC[C@H](O)CC5)n4)n(C)c3c2)ccn1` [Example I-38, N-(4-((2-((1-(((1r,4r)-4-hydroxycyclohexyl)methyl)-5-(trifluoromethyl)-1H-pyrazol-3-yl)amino)-1-methyl-1H-benzo[d]imidazol-6-yl)oxy)pyridin-2-yl)acetamide], the pKd was 6.00 to 7.30.
Molecule `CC(=O)Nc1cc(Oc2ccc3nc(Nc4cc(C(F)(F)F)n(C5CC6(C5)CN(C(C)=O)C6)n4)n(C)c3c2)ccn1` [Example I-39, N-(4-((2-((1-(2-acetyl-2-azaspiro[3.3]heptan-6-yl)-5-(trifluoromethyl)-1H-pyrazol-3-yl)amino)-1-methyl-1H-benzo[d]imidazol-6-yl)oxy)pyridin-2-yl)acetamide] has a pKd greater than 8.00.
Work on `CC(=O)Nc1cc(Oc2ccc3nc(Nc4nc5c(s4)CCC(C)(C)C5)n(C)c3c2C)ccn1` [Example I-43, N-(4-((2-((5,5-dimethyl-4,5,6,7-tetrahydrobenzo[d]thiazol-2-yl)amino)-1,7-dimethyl-1H-benzo[d]imidazol-6-yl)oxy)pyridin-2-yl)acetamide] yielded a pKd of 5.30 to 6.00.

pKd: −log10 of the molar value.
